{"source": "patent US11590163B2", "about": "“Iron-fortified food composition” (SOCIETE DES PRODUITS NESTLE S.A., priority 2017, dated 2023)", "assay": "Colour change in iron-fortified bouillon (CIELAB ΔEab*)", "format": "physicochemical", "settings": "chicken bouillon containing curcumin, approx. 5.5 mg iron per 6.55 g powder, reconstituted in 250 mL boiling water, 60° C. min. 30 minutes; vs bouillon with no iron", "protocol": "Commercial Maggi Chicken Bouillon (Nestle Nigeria) containing curcumin was iron fortified by the addition of iron (III) complexes from Example 1, as well as ferrous sulphate (Dr. P. Lohmann GmbH KG) Ref1, and […] (Dr. P. Lohmann GmbH KG) Ref2. The amounts were chosen to provide approximately 5.5 mg of iron per 6.55 g of bouillon powder. A further sample without iron fortification was also prepared in the same manner. All samples were reconstituted in 250 mL of boiling water and kept at 60° C. for a minimum of 30 minutes.\nColour measurements were performed in 2.6×1 cm quartz cuvettes using an XRite ColorEye 7000A colorimeter. The colorimeter was set up with a D65 light source, 10 degree observer angle, specular component included and Large area View (LAV). The colour difference between the beverage with no iron salt and the iron-fortified beverages was measured for each material and expressed as ΔEab* using the CIELAB colour scale (Table 2)."}
{"substance": "ferric pyrophosphate [Ref2]", "values": [{"measurement": "Δ E", "result": 6.1}]}
